These are literature values, as cited in US20150133460A1 (Millennium Phamaceuticals, Inc., priority 2013, published 2015).

This data set relates to human Flt-3/ITD-positive AML cancer cells. The note with it: preclinical studies; cited from earlier work.

With `COc1cc2c(N3CCN(C(=O)Nc4ccc(OC(C)C)cc4)CC3)ncnc2cc1OCCCN1CCCCC1` [4-[6-methoxy-7-(3-piperidin-1-yl-propoxy)quinazolin-4-yl]piperazine-1-carboxylic acid(4-isopropoxyphenyl)-amide], the “killing of human Flt-3/ITD-positive AML cancer cells” value was “selectively killed”.
